Like-named read-outs stand apart in the source and are kept apart here.
stability of the formulation (epinephrine remaining) (0 h): 100
stability of the formulation (epinephrine remaining) (168 h): 98.9
stability of the formulation (epinephrine remaining) (336 h): 99.3
stability of the formulation (epinephrine remaining) (672 h): 96.5
Substance: EDTA

Source: US20080269347A1, “EPINEPHRINE FORMULATIONS” (Azopharma, Inc., priority 2006, published 2008)
